Measurements as given in US20220408725A1, “NEW DEFOLIANT AND APPLICATION THEREOF” (CHENGDU NEWSUN CROP SCIENCE CO., LTD., priority 2020, published 2022).

Test system: pepper plants
Test: Pot spray test of defoliants on pepper plants (defoliation rate and fruit abscission rate)
Conditions: in vivo
Method: 1 Test temperature and humidity
The defoliant listed in Table 1 is diluted to a certain extent for application. See Table 2 for the active constituents and dilution factor of the defoliant.
100X, 160X and 400X dilution of the C12-C14 fatty alcohol polyoxyethylene (5) ether refers to 100X, 160X and 400X dilution of the defoliant listed in Table 1 containing an active constituent of C12-C14 fatty alcohol polyoxyethylene (5) ether. 160X+1400X dilution of the C12-C14 fatty alcohol polyoxyethylene (5) ether+40% ethephon refers to 160X dilution of the defoliant listed in Table 1 containing an active constituent of C12-C14 fatty alcohol polyoxyethylene (5) ether and mixture with 40% ethephon subject to 1400X dilution, equivalent to that the mixed solution contains 0.5% of C12-C14 fatty alcohol polyoxyethylene (5) ether and 0.029% of ethephon.
A total of 7 treatment plots (including 1 for control group, with water) are arranged for the test, each including 5 pots.
Spray method. […]
The defoliation effect on the pepper plants is analyzed through comparison of the results of the pots before and after application of the reagent and the control group.

Isomeric C13 fatty alcohol polyoxyethylene (5) ether [Treatment 4]
Fruit abscission rate 3 days after application: 0% | Fruit abscission rate 5 days after application: 0%
